Results as given in patent US6372790B1, “Pharmaceutical composition comprising a combination of metformin and fibrate, and its use for the preparation of medicines intended to reduce hyperglycaemia” (Merck Patent Gesellschaft mit beschrankter Haftung, priority 1998, dated 2002).

System: NIDD STZ rats
Assay: Streptozotocin-induced non-insulin-dependent diabetes (NIDD) rat model: glycaemia, cholesterol, triglycerides
Format: in vivo
Conditions: STZ (45 mg/kg) diabetic male Wistar rats, oral treatment at the doses in Table 1, measured 23 days after STZ, mean ± SEM, 10 rats per group
Text: Non-insulin-dependent diabetes (NIDD) is induced by injecting streptozotocin into male wistar rats. The action of clofibrate alone, of bezafibrate alone, of fenofibrate alone and of metformin alone was first evaluated in terms of glycaemia, cholesterol level and level of triglycerides. Next, the metformin+clofibrate, metformin+bezafibrate and metformin+fenofibrate combinations were studied. The procedure followed is as follows. […] Two weeks after this treatment, blood is taken and the glycaemia is measured. […] The animals then receive, orally, either metformin alone, or a fibrate alone, or a combination of the two in the doses indicated in Table 1 below. 23 days after the injection of streptozotocin, the animals are sacrificed and the following parameters are determined: glycaemia, cholesterol and triglycerides. […] The Student t test is carried out to evaluate the significance of the results obtained.

CC(C)OC(=O)C(C)(C)Oc1ccc(C(=O)c2ccc(Cl)cc2)cc1 [Fenofibrate, fenofibrate]
Glycaemia: 1.92 ± 0.20 g/L | Glycaemia (listed as fenofibrate): 1.92 g/L
